scFv variants of Ab-14 (heavy chain) against a SARS-CoV-2 spike peptide

Source: Li et al. 2023 (doi:10.1038/s41467-023-39022-2), MIT Lincoln Laboratory and A-Alpha Bio; data file from the FLAb repository.

All variants were tested on one target, the spike HR2 peptide PDVDLGDISGINAS (SARS-CoV-2).

Parent scFv Ab-14: VH joined to VL by a (GGGGS)3 linker. Changes lie in the heavy chain CDRs alone.
VH: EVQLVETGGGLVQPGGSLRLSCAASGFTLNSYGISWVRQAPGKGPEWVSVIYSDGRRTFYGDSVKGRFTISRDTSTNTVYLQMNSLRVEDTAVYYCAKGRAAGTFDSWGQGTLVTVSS
VL: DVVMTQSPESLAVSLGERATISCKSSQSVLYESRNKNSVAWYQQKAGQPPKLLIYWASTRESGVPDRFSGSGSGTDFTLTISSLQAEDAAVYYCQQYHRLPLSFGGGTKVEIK

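The starting antibody came from a phage panning campaign against this peptide. This is the validation round: designs drawn from the data on random variants, tested in the same kind of assay. Several design methods are mixed in this list. AlphaSeq pools MATa yeast showing the antibodies with MATalpha yeast showing the peptide. Mating (16 h, 30 °C) was followed by selection of diploids and sequencing of their barcodes. Each replicate has its own calibration line, from reference interactions of the BCL2 family. Mating was done six times.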

Variants are written as CDR1, CDR2 and CDR3 of the heavy chain (limits as in the source). Parent: GFTLNSYGIS, VIYSDGRRTFYGDSVK, GRAAGTFDS. Affinities are written as log10 Kd with Kd in nM; a lower number is a better binder. Replicates are averaged; those with no signal do not enter the mean. Where no diploid with the target was found in any replicate, the entry reads "nd": below detection, most likely a poor binder, though not proof of it.

| # | CDR-H1 | CDR-H2 | CDR-H3 | log10 Kd (nM), mean | detected | signal with controls |
|---|---|---|---|---|---|---|
| 1 | GFSLNSYGIS | VIYSDGRRTMYGDSVK | GRAGGMFDS | nd | 0 of 6 | 0 of 18 |
| 2 | GETLNSYGIS | VIYSDGRRTFYGDSVK | IRAAKTFDS | nd | 0 of 6 | 0 of 18 |
| 3 | GQDINEYGIS | VIYADGMRKAYVQNVK | GENTSSVQI | nd | 0 of 6 | 0 of 18 |
| 4 | GFDLNSYGIS | VIYSDGRRTFYVDSVK | GRWAGTFDS | 1.33 | 6 of 6 | 1 of 18 |
| 5 | GFSLNNYGIS | VIYSDGRRTFYSDSVK | GRTAGTFDS | -0.27 | 6 of 6 | 1 of 18 |
| 6 | GFNLDEYGIS | VIYADGKRTFYADSVK | GEVAGTFDT | nd | 0 of 6 | 0 of 18 |
| 7 | GFSLNMYGIS | VIYSDGRRTFYADSVK | GRTAGTFDS | 0.60 | 6 of 6 | 0 of 18 |
| 8 | GFDLQEYGIS | VIYADGRRTFYTDSVK | GEVAGTFDS | 0.05 | 6 of 6 | 0 of 18 |
| 9 | DFGLNSYGIS | VIYSDGQRTFYLDKVK | GAVAGTFDS | nd | 0 of 6 | 0 of 18 |
| 10 | GFDLNEYGIS | VIYADGQRTAYADSVK | GSNAGTFDV | -0.03 | 6 of 6 | 0 of 18 |
| 11 | GFDLNEYGIS | VIYADGKRTAYSDSVK | GNNAGTFDQ | -0.34 | 6 of 6 | 1 of 18 |
| 12 | GFTLNSYGIS | VIYSDGRRTFYGNDVK | GRETGTMDS | nd | 0 of 6 | 1 of 18 |
| 13 | GFTLNSYGIS | VIYSDGRRTFYIDSVK | GRAAKDFDS | nd | 0 of 6 | 0 of 18 |
| 14 | GFNLDEYGIS | VIYADGSRTAYADSVK | GNVAGTFDV | -0.38 | 6 of 6 | 0 of 18 |
| 15 | GFTLNQYGIK | VIYSDRRRTFYSDVVK | GRAAGFFDS | nd | 0 of 6 | 0 of 18 |
| 16 | KFDLEAYGIS | VIYADGVRTAYVDKVK | GQTGGMFDM | 2.51 | 5 of 6 | 0 of 18 |
| 17 | GFNLDEYGIS | VIYADGARTAYTNKVK | GGNWMISVA | nd | 0 of 6 | 0 of 18 |
| 18 | GFTLNSYGIS | VIYSDGRRTFYADSVK | GRTAGTFWS | -0.28 | 3 of 6 | 0 of 18 |
| 19 | GFDLDEYGIS | VIYADGKRTAYADSVK | GEVAGTFDL | 0.27 | 6 of 6 | 1 of 18 |
| 20 | GFDLNSYGIS | VIYSDGMRTFYADSVK | GRQAGTFDS | 0.23 | 6 of 6 | 0 of 18 |
| 21 | GFELNSYGIS | VIYSDGRRTFYQPSVK | GRAAGTFDS | 2.10 | 5 of 6 | 0 of 18 |
| 22 | GFDIEDYGIS | VIYADGVRAMYKESFK | GGIAGTFLI | 2.78 | 1 of 6 | 0 of 18 |
| 23 | GFDLNEYGIS | VIYADGRRTAYTDSVK | GANAGTFDI | -0.54 | 6 of 6 | 0 of 18 |
| 24 | GFTLNSYGIS | VIYSDGRRTFYSDSVK | GRALGTFDV | nd | 0 of 6 | 0 of 18 |
| 25 | RFTLNSYGIS | VIYSDGRRTFYGDSVK | GRAAGSFDS | nd | 0 of 6 | 0 of 18 |
| 26 | GFDLNEYGIS | VIYADGVRTFYIDSVK | GTNAGTFDS | -0.65 | 6 of 6 | 0 of 18 |
| 27 | CFTLNQYHVS | VIYSDGRRTFYSDSVK | GRAAGFFDS | nd | 0 of 6 | 0 of 18 |
| 28 | GFTLNSYDIS | VIYSDGRRTFYSDSVK | GRAAGTGDL | nd | 0 of 6 | 0 of 18 |
| 29 | GFDLNSYGIS | VIYSDGRRTFYSDSVK | GIAGGTFDS | 0.60 | 2 of 6 | 0 of 18 |
| 30 | GFTLNEYGIS | VIYSDGYRTFYGDSVK | GRAAVTFDK | nd | 0 of 6 | 0 of 18 |
| 31 | GFNLNDYGIS | VIYSDGRRTAYGDAVK | GRAIGTFDS | nd | 0 of 6 | 0 of 18 |
| 32 | GFTLNQYGIS | VIYSDGLRTFYGDSVK | GRAAGTFDS | nd | 0 of 6 | 0 of 18 |
| 33 | GFTLNSYGIS | VIYSDGRRTFYTDDVK | GRAAGTFDS | 1.07 | 1 of 6 | 0 of 18 |
| 34 | GFSLKSYGIS | VIYSDGRRTFYADSVK | GKAAGTFDS | 0.96 | 3 of 6 | 0 of 18 |
| 35 | GFDLNEYGIS | VIYADGVRTSYADSVK | GQNAGTFDQ | -0.44 | 6 of 6 | 1 of 18 |
| 36 | GFTLNEYGIS | VIYSDGRRTMYTDSVK | GRQAGTFDS | 0.58 | 6 of 6 | 0 of 18 |
| 37 | GFTLNSYGIS | VIYSDGKRTFYGDSVK | GRVAGTFDQ | 1.66 | 1 of 6 | 0 of 18 |
| 38 | KFDLNSYGIS | VIYSDGRRTFYVDSVK | GKTAGTFDS | 1.62 | 6 of 6 | 0 of 18 |
| 39 | GFTLNSYGIS | VIYSDGRRTFYLDSVK | GRAQGTFDS | nd | 0 of 6 | 0 of 18 |
| 40 | GKDIEEYGIS | VIYADGMRQAYLDKVK | GNNGGSGLF | nd | 0 of 6 | 0 of 18 |
| 41 | GFTLNSYGIS | VIYSDGVRTFYGDSVK | GQAAGTFDL | 1.94 | 5 of 6 | 0 of 18 |
| 42 | GFSLNSYGIS | VIYSDGRRTFYADSVK | GITAGTFDS | -0.27 | 6 of 6 | 2 of 18 |
| 43 | KFSLNWYGIS | VIYSDGRRTFYHDSVK | GRTAGTFDS | 0.58 | 5 of 6 | 1 of 18 |
| 44 | GFDLNEYGIS | VIYADGMRTSYADDVK | GNVAGTFDQ | -0.03 | 6 of 6 | 0 of 18 |
| 45 | DFTLNEYGIS | VIYSDGRRTFYGDSVK | GRAAVTFDT | nd | 0 of 6 | 0 of 18 |
| 46 | GFWLNEYGIS | VIYSDGRRTFYADSVK | GTAAGTFDS | 0.64 | 6 of 6 | 1 of 18 |
| 47 | GFDLNSYGIS | VIYSDGRRTFYADSVK | GREAGTFDR | 0.34 | 5 of 6 | 0 of 18 |
| 48 | GFDLNEYGIS | VIYADGVRTAYSDSVK | GNEAGTFDI | -0.11 | 6 of 6 | 0 of 18 |
| 49 | GFDLNSYGIS | VIYSDGWRTFYKDSVK | GRTAGTFDS | 0.74 | 5 of 6 | 0 of 18 |
| 50 | GFSLNSYGIS | VIYSDGRRTVYGDSVK | GRNAGTFDS | nd | 0 of 6 | 0 of 18 |
| 51 | GFTLNEYGIS | VIYSDGRRTMYDDSVK | GRAAGTFDS | 0.47 | 6 of 6 | 1 of 18 |
| 52 | GFTLNEYGIS | VIYSDGRRTFYGDSVK | GRVAVTFDQ | nd | 0 of 6 | 0 of 18 |
| 53 | GFTLNSYGIS | VIYFDGRRTFYHDSVK | GRAAGTFDS | 1.89 | 1 of 6 | 0 of 18 |
| 54 | GFTLQDYGIS | VIYSDGRRTFYGDSVK | GRAAGTFDS | 1.08 | 6 of 6 | 1 of 18 |
| 55 | GFDLNSYGIS | VIYSDGRRTFYADSVK | GRTAGTFDA | -0.03 | 6 of 6 | 0 of 18 |
| 56 | QFTLNFYGIS | VIYSFGRRTFYSDSVK | GRHGGTFDS | nd | 0 of 6 | 0 of 18 |
| 57 | EFTLNSYGIS | VIYSDGRRTFYSDSVK | GEAGGTFDS | nd | 0 of 6 | 0 of 18 |
| 58 | GNDLQEYGIS | VIYADGMRNQYAQSVK | GMEAGVFVY | nd | 0 of 6 | 0 of 18 |
| 59 | GFDLDEYGIS | VIYADGKRTAYSDSVK | GNVAGTFDT | -0.33 | 6 of 6 | 0 of 18 |
| 60 | GFDLDEYGIS | VIYADGMRTFYADSVK | GNIAGTFDT | -0.06 | 6 of 6 | 0 of 18 |
| 61 | GFDLNSYGIS | VIYSDGRRTFYGDMVK | GRNAGTFDS | 0.62 | 6 of 6 | 0 of 18 |
| 62 | GQTLNSYGIS | VIYSDGRRTFYSDSVK | GRAAFTFDS | nd | 0 of 6 | 0 of 18 |

The 6 strongest on average among those seen in every replicate, once more:

{"CDR-H1": "GFDLNEYGIS", "CDR-H2": "VIYADGVRTFYIDSVK", "CDR-H3": "GTNAGTFDS", "log10 Kd (nM), mean": "-0.65", "detected": "6 of 6", "signal with controls": "0 of 18"}
{"CDR-H1": "GFDLNEYGIS", "CDR-H2": "VIYADGRRTAYTDSVK", "CDR-H3": "GANAGTFDI", "log10 Kd (nM), mean": "-0.54", "detected": "6 of 6", "signal with controls": "0 of 18"}
{"CDR-H1": "GFDLNEYGIS", "CDR-H2": "VIYADGVRTSYADSVK", "CDR-H3": "GQNAGTFDQ", "log10 Kd (nM), mean": "-0.44", "detected": "6 of 6", "signal with controls": "1 of 18"}
{"CDR-H1": "GFNLDEYGIS", "CDR-H2": "VIYADGSRTAYADSVK", "CDR-H3": "GNVAGTFDV", "log10 Kd (nM), mean": "-0.38", "detected": "6 of 6", "signal with controls": "0 of 18"}
{"CDR-H1": "GFDLNEYGIS", "CDR-H2": "VIYADGKRTAYSDSVK", "CDR-H3": "GNNAGTFDQ", "log10 Kd (nM), mean": "-0.34", "detected": "6 of 6", "signal with controls": "1 of 18"}
{"CDR-H1": "GFDLDEYGIS", "CDR-H2": "VIYADGKRTAYSDSVK", "CDR-H3": "GNVAGTFDT", "log10 Kd (nM), mean": "-0.33", "detected": "6 of 6", "signal with controls": "0 of 18"}

The parent sequence was in this pool as ten entries: three were never detected, three once, and four in most replicates, with averages from 0.34 to 2.37. Background: pairings of all heavy chain designs with three empty control strains gave a value in 1% of cases (median 2.08, 5th percentile 0.84). Values in that range, when seen in few replicates, are hard to tell from nonspecific mating. Also given: how often the same scFv was detected with the empty control strains. The authors' rule: three or more of the six replicates give a measured affinity, fewer mean a poor binder. The range of this assay differs from that of the first round, and the authors advise against merging the two.